Growth doubling time of 3T3 Flp-In hSSTR subtype 2 cells (3T3-Control: 31 hours) data for one substance are collected here from US20090016989A1, “ANTIBODIES TO HUMAN SOMATOSTATIN RECEPTOR AND METHODS OF USE” (priority 2007, published 2009).

Chains of the proteins cited; added tags and fusions are not shown. Lines headed by an entry give the natural chain unless they say otherwise; changes in a name come on top.
UniProt P30874: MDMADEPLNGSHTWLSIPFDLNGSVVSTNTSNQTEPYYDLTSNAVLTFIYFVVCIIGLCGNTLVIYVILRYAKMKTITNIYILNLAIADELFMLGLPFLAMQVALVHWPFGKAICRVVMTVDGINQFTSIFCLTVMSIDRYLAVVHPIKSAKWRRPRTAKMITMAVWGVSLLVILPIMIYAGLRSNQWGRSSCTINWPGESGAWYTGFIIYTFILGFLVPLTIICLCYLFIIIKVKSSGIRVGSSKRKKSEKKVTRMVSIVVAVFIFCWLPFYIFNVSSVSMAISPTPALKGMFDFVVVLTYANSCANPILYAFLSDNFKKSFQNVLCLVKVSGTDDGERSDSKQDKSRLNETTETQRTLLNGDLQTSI
UniProt P60041: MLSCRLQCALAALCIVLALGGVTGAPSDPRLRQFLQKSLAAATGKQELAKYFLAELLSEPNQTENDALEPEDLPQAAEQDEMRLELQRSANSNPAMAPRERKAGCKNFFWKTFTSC

In this assay the target is human somatostatin receptor (hSSTR) subtype 2 (human) (UniProt P30874). Nature of the assay: cell-based or functional assay.

“endogenous mouse SST (from UniProt P60041 103-116) (ligand)” displayed a growth doubling time of 3T3 Flp-In hSSTR subtype 2 cells (3T3-Control: 31 hours) of 42 h.
